The numbers were not newly measured in patent US20250090529A1, “USE OF SHP2 INHIBITORS FOR THE TREATMENT OF INSULIN RESISTANCE” (INSERM (INSTITUT NATIONAL DE LA SANTÉ ET DE LA RECHERCHE …, priority 2018, published 2025), which cites them from elsewhere.

The target in the data set is SHP2 (Homo sapiens, UniProt Q06124). The note with it: Garcia Fortanet et al., J Med Chem 2016; cited from earlier work.

With `CC1(N)CCN(c2cnc(-c3cccc(Cl)c3Cl)c(N)n2)CC1` [SHP099, 6-(4-amino-4-methylpiperidin-1-yl)-3-(2,3-dichlorophenyl)pyrazin-2-amine], the specificity result was “highly specific”.
